In PubChem BioAssay AID2101 (National Center for Advancing Translational Sciences (NCATS), 2009) one finds activity change, negative = inhibition data, which are given here for 28 molecules.

This is a selection; strong and weak results do not stand in their true shares. Results filed as inconclusive are left out. Active and inactive are the calls of the source. Calls come from the whole dose curve; as a rule, active = well fitted inhibition curve with a large enough effect; inconclusive = small, poorly fitted or top-dose-only effect, or effect the other way, or another doubt; inactive = no such curve, though single readings can be large or run the other way.

In the experiment the target is Lysosomal acid glucosylceramidase (Homo sapiens) (UniProt P04062). Nature of the experiment: qHTS Assay for Inhibitors and Activators of N370S glucocerebrosidase as a Potential Chaperone Treatment of Gaucher Disease.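 Note: 0% = full enzyme activity and -100% = no enzyme basal.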 The settings on record: N370S GC spleen homogenate, 4MU-glucoside fluorescence; at 59.4 µM (top of the series) unless noted. An excerpt:
NIH Chemical Genomics Center [NCGC]
NIH Molecular Libraries Probe Production Centers Network [MLPCN]
Assay Submitter (PI): Wei Zheng
Glucocerebrosidase (GC) catalyzes the hydrolysis of beta-glucocerebroside to glucose and ceramide in lysosomes. Mutations in the glucocerebrosidase gene result in Gaucher disease, an autosomal recessive lysosomal storage disorder. Many of the mutations encountered in patients with Gaucher disease are missense alterations that may cause misfolding, decreased stability and/or mistrafficking of this lysosomal protein. […] These inhibitors include iminosugar analogs and three non-iminosugar inhibitors identified from a previous HTS of 62,000 compounds with the wild type recombinant enzyme. However, the enhancement of enzyme activity by the chaperone action of an enzyme inhibitor must be balanced against the direct inhibition of the enzyme. An enzyme activator could also function as a chaperone by binding to the enzyme and helping to correct its misfolding and mistrafficking. While activators for GC have not yet been identified, they may have better therapeutic potential than inhibitors. Therefore the discovery and development of chemical activators may provide a new strategy for the chaperone therapy.
We have optimized a new assay using N370S mutant GC derived from the spleen of a Gaucher patient. […] In addition, the MLPCN compound library has expanded, which increases the chance of finding new and better probes.
NCGC Assay Protocol Summary:
This is a fluorogenic enzyme assay with 4-methylumbelliferyl-beta-D-glucopyranoside as the substrate and N370S glucocerebrosidase from human spleen homogenate as the enzyme preparation. Upon the hydrolysis of this fluorogenic substrate, the resulting product, […] which can be detected by a standard fluorescence plate reader. Data were normalized to the controls for basal activity (without enzyme) and 100% activity (with enzyme). The AC50 values were determined from concentration-response data modeled with the standard Hill equation.
Assay buffer: 50 mM citric acid (titrated with potassium phosphate to pH 5.0), 100 mM potassium chloride, 10 mM sodium chloride, 1 mM magnesium chloride, 0.01% Tween-20.
1536-well assay protocol:
(1) Add 2 ul/well of spleen homogenate (27 ug final)
(2) Add 23 nL compounds in DMSO solution. The final titration was 0.5 nM to 58 uM.
(3) Add 2 ul of substrate (1 mM final)
(4) Incubate at 37C for 40 min.
(5) Add 2 ul stop solution (1M NaOH and 1M Glycine mixture, pH 10)
(6) Detect the assay plate in a ViewLux plate reader (PerkinElmer) with Ex=365 nm and Em=440nm.
Keywords: Glucocerebrosidase, beta-glucosidase, Gaucher Disease, pharmacological chaperone, chaperone therapy, high throughput screening, glucocerebrosidase inhibitor, MLSMR, MLSCN, NIH Roadmap, qHTS and NCGC
A general note: qHTS replaces the single test concentration by a dilution series.
As to `CCOC(=O)c1ccc(NP(C)(=O)Oc2ccc(F)cc2)cc1` (stereo not drawn), the activity change, negative = inhibition is inactive: 6.33%.
In the case of `COc1ccc(OP(C)(=O)Nc2ccc(SC(F)(F)F)cc2)cc1` (stereo not drawn) it was inactive: -12.3%; in that of `O=C(OCCN1CCN(CCOCc2ccccc2)CC1)C(O)(c1ccccc1)c1ccccc1`, inactive: 22.1%; in that of `CP(=O)(Nc1ccccc1F)Oc1ccccc1` (stereo not drawn), inactive: -9.67% [at 2.35 µM].
Turning to `CC(C)c1ccc(OP(C)(=O)Nc2ccc(SC(F)(F)F)cc2)cc1` (stereo not drawn), the activity change, negative = inhibition was inactive: 0.379%.
In the case of `Cc1c(NP(C)(=O)Oc2ccc(C(C)C)cc2)c(=O)n(-c2ccccc2)n1C` (stereo not drawn), the activity change, negative = inhibition is inactive: 7.97%.
With `O=[N+]([O-])c1cc([N+](=O)[O-])c(Nc2ccccn2)c([N+](=O)[O-])c1` the figure was inactive: -5.64%; with `CP(=O)(Nc1ccccn1)Oc1ccccc1` (stereo not drawn), inactive: -10.7%; with `COc1ccccc1OP(C)(=O)Nc1ccc(C)cc1C` (stereo not drawn), inactive: -0.409%.
With `CCc1ccc(OP(C)(=O)O)cc1` the figure was inactive: 9.1%; with `COc1ccccc1OP(C)(=O)Nc1ccc(Br)cc1` (stereo not drawn), inactive: -0.0447%.
In the case of `CN(C)CCOC(=O)C(O)(c1ccccc1)C1CCCC1` (stereo not drawn) it was inactive: 1.37%.
For `Cc1nc2ccc3ccccc3c2o1.O=[N+]([O-])c1cc([N+](=O)[O-])c(O)c([N+](=O)[O-])c1`, the activity change, negative = inhibition is inactive: -12.7%.
Take `CP(=O)(OCCOc1ccccc1)OCCOc1ccccc1`: the activity change, negative = inhibition was inactive: 3.38%.
Consider `Cc1cc(C)cc(OP(C)(=O)Nc2cccc(C(F)(F)F)c2)c1` (stereo not drawn), for which the activity change, negative = inhibition was inactive: 11.2%.
Turning to `C/C1=C2N=C(/C=C3N=C(/C(C)=C4\[N-][C@@](C)([C@H]5N=C1[C@@](C)(CCC(=O)NC[C@H](C)OP(=O)([O-])O[C@@H]1[C@H](O)[C@H](n6cnc7cc(C)c(C)cc76)O[C@@H]1CO)[C@@H]5CC(N)=O)[C@](C)(CC(N)=O)[C@H]4CCC(N)=O)[C@@](C)(CC(N)=O)[C@@H]\3CCC(N)=O)C(C)(C)[C@@H]/2CCC(N)=O.[C-]#N.[Co+3]`, the activity change, negative = inhibition was inactive: 10.9% [at 21.6 µM].
With `CCOC(=O)c1ccc(NP(C)(=O)Oc2ccc(Cl)cc2)cc1` (stereo not drawn) the figure was inactive: -15.2%.
Regarding `COc1ccccc1OP(C)(=O)Nc1ccccc1Br` (stereo not drawn), the activity change, negative = inhibition was inactive: 7.57%.
With `CC(C)(C)c1ccc(OP(C)(=O)O)cc1` the figure was inactive: 7.1%.
In the case of `CP(=O)(Nc1ccc(Cl)cc1)Oc1ccc(F)cc1` (stereo not drawn) it was inactive: -6.42%; in that of `CN(C)C(=O)c1c([N+](=O)[O-])cc([N+](=O)[O-])cc1[N+](=O)[O-]`, inactive: 6.86%.
With `CCN(CC)CC(O)COC(=O)C(O)(c1ccccc1)C1CCCCC1` (stereo not drawn) the figure was inactive: 2.81%; with `COc1ccc(OP(C)(=O)Nc2ccc(Br)cc2)cc1` (stereo not drawn), inactive: -6.52%; with `COc1ccccc1OP(C)(=O)Nc1c(C)n(C)n(-c2ccccc2)c1=O` (stereo not drawn), inactive: 8.91%.
For the molecule `O=C(OCCCN1CCCC1)C(O)(c1ccccc1)C1CCCCC1` (stereo not drawn), the activity change, negative = inhibition is inactive: -13%.
In the case of `OCCSCCO` it was inactive: 1.21%.
With `CP(=O)(Oc1ccccc1)N1CCOC1=O` (stereo not drawn) the figure was inactive: 7.24% [at 2.35 µM]; with `CCc1ccc(OP(C)(=O)Nc2cccnc2)cc1` (stereo not drawn), inactive: -24.5%.
